Experimental data as given in patent publication US20240034743A9, “TRICYCLIC COMPOUNDS AS EGFR INHIBITORS” (QILU PHARMACEUTICAL CO., LTD., priority 2020, published 2024).

Protein sequences, listed by entry. Tags and fused reporters are not part of them. Lines headed by an entry give the natural chain unless they say otherwise; changes in a name come on top. Residues count along the entry.
UniProt P00533, 25-1210 limits assumed: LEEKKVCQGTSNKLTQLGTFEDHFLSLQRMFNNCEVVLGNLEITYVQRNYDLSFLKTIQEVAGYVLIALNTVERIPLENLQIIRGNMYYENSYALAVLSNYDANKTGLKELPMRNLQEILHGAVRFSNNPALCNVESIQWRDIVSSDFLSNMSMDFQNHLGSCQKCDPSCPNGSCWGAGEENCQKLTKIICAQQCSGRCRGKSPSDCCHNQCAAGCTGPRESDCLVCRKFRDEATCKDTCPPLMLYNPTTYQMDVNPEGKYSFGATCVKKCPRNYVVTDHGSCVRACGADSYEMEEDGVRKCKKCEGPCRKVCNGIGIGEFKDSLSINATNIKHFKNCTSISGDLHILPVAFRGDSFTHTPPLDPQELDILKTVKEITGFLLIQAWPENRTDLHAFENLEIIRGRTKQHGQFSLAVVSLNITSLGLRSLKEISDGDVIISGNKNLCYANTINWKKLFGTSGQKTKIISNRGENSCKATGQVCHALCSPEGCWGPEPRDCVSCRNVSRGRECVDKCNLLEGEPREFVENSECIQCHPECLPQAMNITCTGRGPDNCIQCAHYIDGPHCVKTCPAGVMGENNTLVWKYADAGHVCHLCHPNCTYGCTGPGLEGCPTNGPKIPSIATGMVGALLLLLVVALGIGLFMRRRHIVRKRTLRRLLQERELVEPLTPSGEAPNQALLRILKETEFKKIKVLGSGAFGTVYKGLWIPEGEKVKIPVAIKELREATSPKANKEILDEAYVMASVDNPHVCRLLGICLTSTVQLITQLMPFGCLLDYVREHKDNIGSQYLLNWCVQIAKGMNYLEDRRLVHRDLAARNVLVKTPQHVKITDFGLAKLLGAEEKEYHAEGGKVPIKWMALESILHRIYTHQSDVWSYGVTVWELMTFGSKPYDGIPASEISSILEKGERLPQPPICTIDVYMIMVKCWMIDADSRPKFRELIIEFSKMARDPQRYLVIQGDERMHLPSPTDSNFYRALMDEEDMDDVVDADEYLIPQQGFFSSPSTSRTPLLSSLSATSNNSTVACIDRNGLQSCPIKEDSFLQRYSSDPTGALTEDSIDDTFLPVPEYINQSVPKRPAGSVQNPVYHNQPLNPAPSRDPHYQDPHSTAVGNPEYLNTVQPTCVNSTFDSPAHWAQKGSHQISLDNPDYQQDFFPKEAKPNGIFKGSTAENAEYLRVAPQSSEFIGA
UniProt P00533, 25-1210 T790M/C797S/L858R limits assumed: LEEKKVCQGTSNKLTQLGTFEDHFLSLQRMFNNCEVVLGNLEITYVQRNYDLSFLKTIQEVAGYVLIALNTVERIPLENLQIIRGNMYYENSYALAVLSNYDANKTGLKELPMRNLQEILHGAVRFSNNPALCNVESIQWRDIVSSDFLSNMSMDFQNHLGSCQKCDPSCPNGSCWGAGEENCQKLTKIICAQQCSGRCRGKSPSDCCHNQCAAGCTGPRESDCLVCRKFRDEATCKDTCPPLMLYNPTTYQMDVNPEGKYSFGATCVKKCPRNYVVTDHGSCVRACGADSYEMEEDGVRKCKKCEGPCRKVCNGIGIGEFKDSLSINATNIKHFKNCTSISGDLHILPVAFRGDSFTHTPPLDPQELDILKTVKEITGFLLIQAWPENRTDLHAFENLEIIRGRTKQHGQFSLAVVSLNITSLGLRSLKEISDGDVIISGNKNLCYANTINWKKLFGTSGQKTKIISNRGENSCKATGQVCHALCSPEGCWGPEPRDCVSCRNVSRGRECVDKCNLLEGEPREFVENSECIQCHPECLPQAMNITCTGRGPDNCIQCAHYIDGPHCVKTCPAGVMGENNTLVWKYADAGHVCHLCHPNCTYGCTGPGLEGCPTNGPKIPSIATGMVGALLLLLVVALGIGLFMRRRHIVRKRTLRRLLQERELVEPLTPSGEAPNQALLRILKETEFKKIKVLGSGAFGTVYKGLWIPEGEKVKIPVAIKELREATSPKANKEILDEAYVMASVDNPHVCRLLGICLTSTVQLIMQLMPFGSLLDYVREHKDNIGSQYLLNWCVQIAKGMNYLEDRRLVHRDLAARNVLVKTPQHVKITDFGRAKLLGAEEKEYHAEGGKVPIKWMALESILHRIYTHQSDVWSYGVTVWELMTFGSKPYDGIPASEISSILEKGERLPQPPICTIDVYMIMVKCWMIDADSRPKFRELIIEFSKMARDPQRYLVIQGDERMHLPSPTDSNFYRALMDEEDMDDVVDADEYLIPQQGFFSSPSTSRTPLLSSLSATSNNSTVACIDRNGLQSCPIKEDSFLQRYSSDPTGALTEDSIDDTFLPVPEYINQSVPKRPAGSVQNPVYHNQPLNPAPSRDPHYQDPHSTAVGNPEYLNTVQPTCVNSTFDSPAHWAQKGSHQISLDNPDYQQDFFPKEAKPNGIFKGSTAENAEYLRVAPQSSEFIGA

Assays:
EGFR WT (wild type EGFR) = EGFR WT (wild type EGFR) (Homo sapiens (Human), UniProt P00533); experiment: In vitro enzymatic TR-FRET (HTRF KinEASE-TK) kinase assay, EGFR WT; assay type: biochemical; settings: read-out: EGFR (WT) IC50, kinase activity
Procedure: (§1) (I) In Vitro Enzymatic Experiment for EGFR WT and EGFR L858R/T790M/C797S
(§2) In the assay, the inhibition effect of the compound on the kinase activity of EGFR WT (wild type EGFR) and EGFR L858R/T790M/C797S was tested by adopting a time-resolved fluorescence resonance energy transfer (TR-FRET) method, and half maximal inhibitory concentration IC50 of the compound on the kinase activity of EGFR was obtained.
(§3) EGFR recombinase and EGFR L858R/T790M/C797S recombinase, purchased from Signalchem.
(§4) HTRF KinEASE-TK kit, purchased from Cisbio.
(§5) DTT, MnCl2, and MgCl2, purchased from Sigma.
(§6) ATP, purchased from Promega.
(§7) Brigatinib, purchased from Selleck.
(§8) 1) 1× working solution was prepared: 5 mM MgCl2; 1 mM DTT; 1 mM MnCl2 and 1× kinase buffer (in kit).
(§9) 2) […] of gradiently-diluted compound was transferred to a 384-well plate using Echo 550 (Labcyte).
(§10) 3) 5 μL of 2× EGFR WT or EGFR L858R/T790M/C797S recombinase solution was added to the 384-well plate, and the plate was incubated at room temperature for 10 min.
(§11) 4) 5 μL of 2× TK-substrate-biotin substrate solution (containing ATP) was added to the 384-well plate, and the plate was incubated at room temperature for 40 min. […]
(§12) 6) The fluorescence signal values at 615 nm and 665 nm were measured for each well using an Envision microplate reader (PerkinElmer).
(§13) 7) The ratio of fluorescence signal values at 665 nm and 615 nm was calculated for each well. […]

EGFR L858R/T790M/C797S = EGFR L858R/T790M/C797S (Homo sapiens (Human), UniProt P00533, C797S/L858R/T790M); experiment: In vitro enzymatic TR-FRET (HTRF KinEASE-TK) kinase assay, EGFR L858R/T790M/C797S; assay type: biochemical; settings: read-out: EGFR (L858R/T790M/C797S) IC50, kinase activity
Procedure: as §1, §2, §3, §4, §5, §6, §7, §8, §9, §10, §11, §12, §13

A431 cells (EGFR WT) = experiment: A431 cell proliferation inhibition assay (CellTiter-Glo); assay type: cell-based; settings: read-out: A431 EGFR WT IC50, 72 h
Procedure: A431 Cell Proliferation Inhibition Assay
In the assay, the inhibition effect of the compounds on the proliferation of A431 cells was tested by adopting a CellTiter-Glo method, and the concentration IC50 of the compound for inhibiting half maximal growth of cells was obtained.
A431 cells, purchased from ATCC.
DMEM medium, fetal bovine serum (FBS), and Penicillin-Streptomycin, purchased from GIBCO.
as §7
(§14) CellTiter-Glo reagent, purchased from Promega.
1) A431 cells were seeded in a 384-well plate at a density of 800 cells/well with 30 μL/well, and the plate was cultured in a cell incubator for 24 h (37° C., 5% CO2).
(§15) 2) Day 0: […] of gradiently-diluted compounds to be tested with a final concentration of DMSO of 0.1% was added to plate using Echo, and the plate was incubated in a cell incubator for 72 h (37° C., 5% CO2). […] of DMSO was added into each well in blank control group.
(§16) 3) Day 3: 30 μL Cell Titer-Glo reagent was added to each well, and the plate was in the dark under room temperature for 30 min.
(§17) 4) The chemiluminescent signal was detected by an Envision plate reader (PerkinElmer).
(§18) 5) Data analysis was performed using GraphPad Prism software to give the IC50 for compounds.

[1] = tested on: Ba/F3_Del19/T790M/C797S cells; experiment: Ba/F3_Del19/T790M/C797S cell proliferation inhibition assay (CellTiter-Glo); assay type: cell-based; settings: read-out: Ba/F3 (Del19/T790M/C797S) IC50, 72 h
Procedure: Ba/F3_Del19/T790M/C797S Cell Proliferation Inhibition Assay
In the assay, the inhibition effect of the compounds on the proliferation of Ba/F3_Del19/T790M/C797S cells was tested by adopting a CellTiter-Glo method, and the concentration IC50 of the compound for inhibiting half maximal growth of cells was obtained.
Ba/F3_Del19/T790M/C797S, purchased from Kyinno Biotechnology Co., Ltd. 1640 medium, fetal bovine serum (FBS), Penicillin-Streptomyces, and GlutaMAX-I Supplement, purchased from GIBCO.
as §7, §14
1) Ba/F3_Del19/T790M/C797S cells were seeded in a 384-well plate at a density of 700 cells/well with 30 μL/well.
as §15, §16, §17
Data analysis was performed using GraphPad Prism 6 software to give the IC50 for compounds.

[2] = tested on: Ba/F3_L858R/T790M/C797S cells; experiment: Ba/F3_L858R/T790M/C797S cell proliferation inhibition assay (CellTiter-Glo); assay type: cell-based; settings: read-out: Ba/F3 (L858R/T790M/C797S) IC50, 72 h
Procedure: Ba/F3_L858R/T790M/C797S Cell Proliferation Inhibition Assay
In the assay, the inhibition effect of the compounds on the proliferation of Ba/F3_L858R/T790M/C797S cells was tested by adopting a CellTiter-Glo method, and the concentration IC50 of the compound for inhibiting half maximal growth of cells was obtained.
Ba/F3_L858R/T790M/C797S cells were constructed by Pharmaron Beijing Co., Ltd.
1640 medium, fetal bovine serum (FBS), Penicillin-Streptomyces, and GlutaMAX-I Supplement, purchased from GIBCO.
as §7, §14
1) Ba/F3_L858R/T790M/C797S cells were seeded in a 384-well plate at a density of 700 cells/well with 30 μL/well.
as §15, §16, §17, §18

SMILES	IC50 (EGFR WT (wild type EGFR)) [µM]	IC50 (EGFR L858R/T790M/C797S) [µM]	IC50 (A431 cells (EGFR WT)) [µM]	IC50 [1] [µM]	IC50 [2] [µM]
COc1cc2c(cc1Nc1ncc(Br)c(Nc3ccccc3N(C(C)C)S(C)(=O)=O)n1)-c1cnn(C)c1CCN2C	0.01 to 0.05	0.001 to 0.01	0.1 to 1	0.01 to 0.05	0.01 to 0.05
COc1cc2c(cc1Nc1ncc(Br)c(Nc3ccc4nccnc4c3P(C)(C)=O)n1)-c1cnn(C)c1CCN2C1CCCN(C)C1 (single isomer, unassigned) [117A]			0.01 to 0.05	< 0.01	< 0.01
COc1cc2c(cc1Nc1ncc(Br)c(Nc3ccc4nccnc4c3P(C)(C)=O)n1)-c1cnn(C)c1CCN2C1CCCN(C)C1 (single isomer, unassigned) [117B]			0.05 to 0.1	< 0.01	0.01 to 0.05
